Patent US6172038A, “Antipathogenic peptides and compositions comprising them” (priority 1996, dated 2001)

Columns and labels:
[1] = system: human red blood cells (hRBC); conditions: human erythrocytes (Oren and Shai, 1996); cited from earlier work
[2] = system: human red blood cells (hRBC); experiment: Hemolysis of human red blood cells; format: cell-based; conditions: up to maximum concentration tested (50 μM)
Excerpt: (ix) Hemolysis of human red blood cells.

Compound | fold less hemolytic than melittin [1] | hemolytic activity (dose response) [2]
CC[C@H](C)[C@H](NC(=O)[C@H](CCCCN)NC(=O)[C@@H]1CCCN1C(=O)[C@@H](NC(=O)[C@H](CC(C)C)NC(=O)[C@H](C)NC(=O)[C@H](Cc1ccccc1)NC(=O)[C@H](Cc1ccccc1)NC(=O)CN)[C@@H](C)CC)C(=O)N[C@H](C(=O)N[C@@H](CO)C(=O)N[C@@H](CO)C(=O)N1CCC[C@H]1C(=O)N[C@@H](CC(C)C)C(=O)N[C@@H](Cc1ccccc1)C(=O)N[C@@H](CCCCN)C(=O)N[C@H](C(=O)N[C@@H](CC(C)C)C(=O)N[C@@H](CC(C)C)C(=O)N[C@@H](CO)C(=O)N[C@@H](C)C(=O)N[C@H](C(=O)NCC(=O)N[C@@H](CO)C(=O)N[C@@H](C)C(=O)N[C@@H](CC(C)C)C(=O)N[C@@H](CO)C(=O)N[C@@H](CO)C(=O)N[C@@H](CO)C(=O)NCC(=O)NCC(=O)N[C@@H](CCC(N)=O)C(=O)N[C@@H](CCC(=O)O)C(=O)O)C(C)C)[C@@H](C)O)[C@@H](C)CC [Pardaxin] | 40-100 fold | 
CC[C@@H](C)[C@@H](NC(=O)[C@H](CC(C)C)NC(=O)[C@H](C)NC(=O)[C@@H]1CCCN1C(=O)[C@H](CC(C)C)NC(=O)CNC(=O)[C@@H](NC(=O)[C@@H](NC(=O)[C@H](CC(C)C)NC(=O)[C@H](NC(=O)[C@H](CCCCN)NC(=O)[C@H](CC(C)C)NC(=O)[C@H](NC(=O)[C@H](C)NC(=O)CNC(=O)[C@@H](NC(=O)CN)[C@@H](C)CC)C(C)C)C(C)C)[C@@H](C)O)[C@@H](C)O)C(=O)N[C@@H](CO)C(=O)N[C@@H](Cc1c[nH]c2ccccc12)C(=O)N[C@H](C(=O)N[C@H](CCCCN)C(=O)N[C@@H](CCCNC(=N)N)C(=O)N[C@@H](CCCCN)C(=O)N[C@@H](CCCNC(=N)N)C(=O)N[C@@H](CCC(N)=O)C(=O)N[C@@H](CCC(N)=O)C(N)=O)[C@@H](C)CC [Peptide 18] |  | practically devoid of hemolytic activity
